From patent EP0612845A2 (priority 1993, dated 1994)

By UniProt entry, the sequences of proteins in these tests, tags left out.
UniProt P33535, whole entry: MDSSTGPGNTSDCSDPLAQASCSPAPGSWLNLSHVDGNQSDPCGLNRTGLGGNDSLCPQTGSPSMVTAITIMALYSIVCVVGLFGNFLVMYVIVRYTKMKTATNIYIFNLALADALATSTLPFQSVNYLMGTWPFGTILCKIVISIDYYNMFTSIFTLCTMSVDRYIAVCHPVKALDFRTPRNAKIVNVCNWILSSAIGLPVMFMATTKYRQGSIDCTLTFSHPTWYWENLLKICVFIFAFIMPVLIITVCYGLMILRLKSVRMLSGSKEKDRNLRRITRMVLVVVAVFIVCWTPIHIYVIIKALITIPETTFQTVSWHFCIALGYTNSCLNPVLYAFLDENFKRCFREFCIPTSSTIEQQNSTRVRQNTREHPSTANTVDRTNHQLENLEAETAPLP

Molecular target: T1, m-opiate receptor (mOR) cDNA RC8-1 expressed in COS cells (Rattus norvegicus, UniProt P33535)
T1 construct: expressed in transfected cells; host or cells: COS cells, transient electroporation with pcDNA1RC8-1; membranes
Type: binding

[D-Pen2,4'-Cl-Phe4,D-Pen5]enkephalin [[³H]DPDPE]
specific recognition of the radioligand: no appreciable specific recognition
